Data on 20 molecules can be found in ChEMBL document CHEMBL1156083, “N,N-Diethyl-4-[(3-hydroxyphenyl)(piperidin-4-yl)amino] benzamide derivatives: the development of diaryl amino piperidines as potent delta opioid receptor agonists with in vivo anti-nociceptive activity in rodent models” (Bioorg Med Chem Lett, 2009).

Assay [1] deals with Mu-type opioid receptor (Homo sapiens, UniProt P35372). The assay is described as follows: Displacement of [125I]FK33824 from human cloned mu opioid receptor.
The target of assay [2] is Kappa-type opioid receptor (Homo sapiens, UniProt P41145). The assay is described as follows: Displacement of [125I]D-pro10-dynorphin from human cloned kappa opioid receptor.

What is called Ki is a dissociation constant, usually derived from enzyme kinetics or from competition with a known ligand.

Take `CCN(CC)C(=O)c1ccc(N(c2cccc(O)c2)C2CCN(CC(C)c3ccccc3)CC2)cc1` (stereo not given): the inhibition constant Ki was 648 nM in assay [1] and 2190 nM in assay [2].
The matching figures for `CCN(CC)C(=O)c1ccc(N(c2cccc(O)c2)C2CCN(CCc3cccs3)CC2)cc1`: 181 nM and 453 nM.
The matching figures for `CCN(CC)C(=O)c1ccc(N(c2cccc(O)c2)C2CCN(CCc3ccoc3)CC2)cc1`: 177 nM and 121 nM.
The like results for `CCN(CC)C(=O)c1ccc(N(c2cccc(O)c2)C2CCN(CCc3ccccc3F)CC2)cc1` were, in that order, 162 nM and 967 nM.
Consider `CCN(CC)C(=O)c1ccc(N(c2cccc(O)c2)C2CCN(CCc3ccccn3)CC2)cc1`, for which the inhibition constant (Ki) was determined as 205 nM in assay [1] and 2040 nM in assay [2].
The matching figures for `CCN(CC)C(=O)c1ccc(N(c2cccc(OC)c2)C2CCN(CCc3ccoc3)CC2)cc1`: 1300 nM and 4990 nM.
The like results for `CCN(CC)C(=O)c1ccc(N(c2cccc(OC)c2)C2CCN(CCc3ncc[nH]3)CC2)cc1` were, in that order, 4440 nM and > 10000 nM.
The like results for `CCN(CC)C(=O)c1ccc(N(c2cccc(OC)c2)C2CCN(CCc3ccccc3)CC2)cc1` were, in that order, 2110 nM and 3610 nM.
Consider `CCN(CC)C(=O)c1ccc(N(c2cccc(OC)c2)C2CCN(CCc3cccs3)CC2)cc1`, for which the Ki in assay [1] was found to be 1960 nM; in assay [2], 6400 nM.
The matching figures for `CCN(CC)C(=O)c1ccc(N(c2cccc(O)c2)C2CCN(CCc3nccn3C)CC2)cc1`: 772 nM and 4600 nM.
The matching figures for `CCN(CC)C(=O)c1ccc(N(c2cccc(O)c2)C2CCN(CCc3ccsc3)CC2)cc1`: 127 nM and 495 nM.
Regarding `C=CCCN1CCC(N(c2ccc(C(=O)N(CC)CC)cc2)c2cccc(O)c2)CC1`, the inhibition constant (Ki) in assay [1] worked out at 130 nM; in assay [2], 98 nM.
The like results for `CCN(CC)C(=O)c1ccc(N(c2cccc(O)c2)C2CCN(CCC3CC3)CC2)cc1` were, in that order, 126 nM and 508 nM.
`CCN(CC)C(=O)c1ccc(N(c2cccc(O)c2)C2CCN(CCC3CCCCC3)CC2)cc1`: the Ki was found to be 289 nM in assay [1] and 726 nM in assay [2].
As for `CCN(CC)C(=O)c1ccc(N(c2cccc(O)c2)C2CCN(CCc3ccco3)CC2)cc1`, the Ki in assay [1] was found to be 115 nM; in assay [2] it was 263 nM.
As for `CCN(CC)C(=O)c1ccc(N(c2cccc(OC)c2)C2CCN(CCc3ccco3)CC2)cc1`, the inhibition constant Ki in assay [1] worked out at 2530 nM; in assay [2], 7080 nM.
On to `CCN(CC)C(=O)c1ccc(N(c2cccc(O)c2)C2CCN(CCc3cccc(F)c3)CC2)cc1`, for which the inhibition constant Ki in assay [1] turned out to be 472 nM; in assay [2], 1360 nM.
The like results for `CCN(CC)C(=O)c1ccc(N(c2cccc(O)c2)C2CCN(CCc3ccncc3)CC2)cc1` were, in that order, 1550 nM and 4570 nM.
For `CCN(CC)C(=O)c1ccc(N(c2cccc(O)c2)C2CCN(CCc3ncc[nH]3)CC2)cc1`, the Ki in assay [1] was found to be 1250 nM; in assay [2], 1190 nM.
The like results for `CCN(CC)C(=O)c1ccc(N(c2cccc(O)c2)C2CCN(CCc3cnc[nH]3)CC2)cc1` were, in that order, 309 nM and 1450 nM.
